Test results published in publication PMC5000766, “Inhibitory Effect of 2,3,5,6-Tetrafluoro-4-[4-(aryl)-1H-1,2,3-triazol-1-yl]benzenesulfonamide Derivatives on HIV Reverse Transcriptase Associated RNase H Activities” (International Journal of Molecular Sciences, 2016).

How the values were obtained:
[1] = biological target: T1, HIV-1 RT-associated RNase H (Human immunodeficiency virus type 1 group M subtype B, UniProt P04585); assay: HIV-1 RNase H polymerase-independent cleavage assay; type: biochemical
T1 construct: The recombinant HIV-1 RT protein; His tag; made in house; host or cells: E. coli strain M15

[2] = biological target: HIV-1 IN in the presence of LEDGF/p75 (Human immunodeficiency virus type 1 group M subtype B, UniProt P04585); assay: biochemical
[3] = biological target: HIV-1 RT-associated RNA-dependent DP (Human immunodeficiency virus type 1 group M subtype B, UniProt P04585); assay: biochemical

**Q.** `CCCCCc1ccc(-c2cn(-c3ccc(S(N)(=O)=O)cc3)nn2)cc1` [Compound 9d] was tested. Which IC50 [1] did it give?
**A.** Its IC50 is 63 ± 7 µM.

**Q.** And the IC50 [2]?
**A.** Its IC50 is > 100 µM.

**Q.** And the IC50 [3]?
**A.** Its IC50 is > 100 µM.

**Q.** With `CCCCCc1ccc(-c2cn(-c3c(F)c(F)c(S(N)(=O)=O)c(F)c3F)nn2)cc1` [Compound 10d] as the compound, how does the IC50 [1] read?
**A.** Its IC50 is 6.6 ± 0.5 µM.

**Q.** And the “specificity index (SpI)” value ([1]; ratio of the RNase H IC50 value vs. the DP IC50 value)?
**A.** The value was ~ 5.

**Q.** What about the IC50 [2] of the same compound?
**A.** Its IC50 is > 100 µM.

**Q.** And the IC50 [3]?
**A.** The IC50 was 33.4 ± 5.8 µM.
